Like-named read-outs stand apart in the source and are kept apart here. One block for each substance: values may come before it.
Columns and labels:
[1] = design: species or system human; conditions: in vivo
[2] = tested on: P450 enzymes, UGTs, SULTs, OATP1B1/1B3, OAT1/3, OCT2, MATE1/2-K, MDR1, BCRP; type: in vitro ADME, human; conditions: data pending publication elsewhere
[3] = data pending publication elsewhere
CYP1A2 = conditions: hepatocytes
CYP3A4 = conditions: hepatocytes
CYP2C9 = CYP2C9 (Homo sapiens, UniProt P11712); assay: CYP2C9 inhibition by XueBiJing compounds, cDNA-expressed enzyme [MFC→HFC]; type: in vitro ADME; conditions: read-out: IC50, CYP2C9 [MFC→HFC]; mean ± SD (n = 3)
UGT1A9 = target: T1, UGT1A9 (Homo sapiens, UniProt O60656); assay: UGT1A9 inhibition by XueBiJing compounds, cDNA-expressed enzyme [4-MU→4-MUG]; type: in vitro ADME; conditions: read-out: IC50, UGT1A9 [4-MU→4-MUG]; mean ± SD (n = 3)
T1 sequence (O60656 26-530): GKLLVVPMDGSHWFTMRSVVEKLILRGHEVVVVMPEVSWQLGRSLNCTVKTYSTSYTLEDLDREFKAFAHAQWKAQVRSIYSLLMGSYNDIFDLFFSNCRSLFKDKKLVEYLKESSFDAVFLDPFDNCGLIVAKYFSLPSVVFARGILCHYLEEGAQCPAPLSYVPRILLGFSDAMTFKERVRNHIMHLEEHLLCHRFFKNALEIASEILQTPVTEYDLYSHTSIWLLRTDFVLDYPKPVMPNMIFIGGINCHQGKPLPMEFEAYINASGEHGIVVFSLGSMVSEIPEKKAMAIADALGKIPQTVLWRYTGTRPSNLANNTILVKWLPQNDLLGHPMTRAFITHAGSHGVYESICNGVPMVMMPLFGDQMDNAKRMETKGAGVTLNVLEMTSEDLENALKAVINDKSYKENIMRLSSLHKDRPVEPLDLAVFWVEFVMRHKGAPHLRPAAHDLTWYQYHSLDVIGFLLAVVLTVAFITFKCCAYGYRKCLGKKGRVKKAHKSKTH

Chains of the proteins cited; added tags and fusions are not shown.
UniProt P11712, whole entry: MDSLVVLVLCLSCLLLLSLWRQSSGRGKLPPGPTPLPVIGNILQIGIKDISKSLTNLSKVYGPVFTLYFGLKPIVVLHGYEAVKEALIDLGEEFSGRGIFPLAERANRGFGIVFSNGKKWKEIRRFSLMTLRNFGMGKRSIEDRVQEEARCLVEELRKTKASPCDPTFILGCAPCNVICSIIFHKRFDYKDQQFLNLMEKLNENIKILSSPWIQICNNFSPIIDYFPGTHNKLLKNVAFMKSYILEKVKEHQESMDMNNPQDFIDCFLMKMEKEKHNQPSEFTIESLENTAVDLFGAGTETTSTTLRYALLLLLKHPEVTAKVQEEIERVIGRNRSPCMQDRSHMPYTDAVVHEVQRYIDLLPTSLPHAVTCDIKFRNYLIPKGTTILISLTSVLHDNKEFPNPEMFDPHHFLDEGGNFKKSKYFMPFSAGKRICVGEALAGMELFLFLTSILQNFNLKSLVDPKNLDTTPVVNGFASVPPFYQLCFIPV

[4] = cited from earlier work
[5] = tested on: P450 enzymes, UGTs, SULTs, OATP1B1/1B3, OAT1/3, OCT2, MATE1/2-K, MDR1, BCRP; conditions: cited from earlier work
[6] = XueBiJing compounds, cited from earlier work
[7] = XueBiJing compounds; cited from earlier work
[8] = human, XueBiJing 100 mL via 75-min intravenous infusion

VSS ([1]; human): 0.34 L/kg
fu-p (unbound fraction in plasma) ([1]; human): 30%
t1/2 ([1]; human): 4.0 h
Cmax ([1]; human, iv): 3800 nM
Membrane permeability [3]: Poor
EA-T/U ratio (treated-cell/untreated-cell ratio of enzyme activity), CYP1A2 (CYP1A2): 2.1–4.9
mRNA-T/U ratio, CYP1A2 (CYP1A2): 4.0 to 9.6
EA-T/U ratio, CYP3A4 (CYP3A4): 2.1–4.9
mRNA-T/U ratio, CYP3A4 (CYP3A4): 4.0 to 9.6
Substance: Hydroxysafflor yellow A [X1]
CLR/(GFR × fu-p) [1]: Renal excretion, GF-based, fe-U, 51% CLR/(GFR × fu-p), 1.2
Major elimination route [1]: Renal excretion, GF-based, fe-U, 51% CLR/(GFR × fu-p), 1.2
fe-U (fraction of dose excreted unchanged into urine) [1]: Renal excretion, GF-based, fe-U, 51% CLR/(GFR × fu-p), 1.2
Related metabolism and transport data (substrate status) [2]: Not the substrate of P450 enzymes, UGTs, SULTs, OATP1B1/1B3, OAT1/3, OCT2, MATE1/2-K, MDR1, or BCRP

IC50 (CYP2C9): 93 ± 18 µM
IC50 (UGT1A9): 74 ± 20 µM
Substance: oxypaeoniflorin [X3]
fu-p (unbound fraction in plasma) ([4]; human plasma): 80%
Cmax [4, 8]: 600 nM
VSS [4, 8]: 0.16 L/kg
t1/2 [4, 8]: 0.7 h
Major elimination route ([4]; human): Renal excretion, GF-based
fe-U (fraction of dose excreted unchanged into urine) ([4]; human): 84%
Related metabolism and transport data (substrate status) [5]: Not the substrate of P450 enzymes, UGTs, SULTs, OATP1B1/1B3, OAT1/3, OCT2, MATE1/2-K, MDR1, or BCRP
pKa [6]: 8.2
LogD(7.4) ([6]; pH 7.4): −0.2
Membrane permeability [7]: Poor

Source: article PMC6804443 (Acta Pharmaceutica Sinica. B, 2019)
